In test [1] the target is T1, PLD2 (Homo sapiens, UniProt O14939). Nature of the test: Phospholipase activity assay, intact. Format: cell-based. The conditions noted are these: read-out: EC50, inhibition of PLD2; whole cells.
Test [2] concerns the target T1, PLD2. Nature of the test: Phospholipase. Format: biochemical. The settings on record: read-out: EC50, inhibition of PLD2; lysates.

By UniProt entry, the sequences of proteins in these tests, tags left out.
UniProt O14939, whole entry, species assumed: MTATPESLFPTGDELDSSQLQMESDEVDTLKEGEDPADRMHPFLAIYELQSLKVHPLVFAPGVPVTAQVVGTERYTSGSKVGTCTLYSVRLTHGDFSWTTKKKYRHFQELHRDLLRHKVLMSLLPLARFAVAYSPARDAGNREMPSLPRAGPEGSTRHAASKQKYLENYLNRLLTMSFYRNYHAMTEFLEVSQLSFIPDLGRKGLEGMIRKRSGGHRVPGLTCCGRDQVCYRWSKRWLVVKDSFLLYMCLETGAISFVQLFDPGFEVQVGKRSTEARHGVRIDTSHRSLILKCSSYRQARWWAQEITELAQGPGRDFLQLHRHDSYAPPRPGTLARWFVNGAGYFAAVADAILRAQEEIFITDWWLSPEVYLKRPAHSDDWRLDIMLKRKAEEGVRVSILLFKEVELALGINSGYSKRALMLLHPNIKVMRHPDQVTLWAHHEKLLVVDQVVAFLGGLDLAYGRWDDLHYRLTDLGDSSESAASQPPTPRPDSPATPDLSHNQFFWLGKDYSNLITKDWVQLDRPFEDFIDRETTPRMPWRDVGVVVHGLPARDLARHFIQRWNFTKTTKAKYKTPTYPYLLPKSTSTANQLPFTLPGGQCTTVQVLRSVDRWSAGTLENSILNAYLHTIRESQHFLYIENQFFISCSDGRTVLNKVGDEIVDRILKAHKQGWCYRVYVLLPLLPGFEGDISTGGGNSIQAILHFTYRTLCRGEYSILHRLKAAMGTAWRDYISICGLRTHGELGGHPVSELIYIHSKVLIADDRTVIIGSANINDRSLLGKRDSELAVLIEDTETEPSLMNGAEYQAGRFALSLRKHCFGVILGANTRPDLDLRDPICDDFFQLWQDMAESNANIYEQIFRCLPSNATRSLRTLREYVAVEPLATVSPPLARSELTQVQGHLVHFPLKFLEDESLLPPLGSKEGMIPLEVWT

What is called EC50 is the midpoint of the concentration-response curve.

For `O=C(NCCN1CCC2(CC1)C(=O)NCN2c1cccc(F)c1)c1ccc2ccccc2c1` [NFOT, N-[2-[1-(3-Fluorophenyl)-4-oxo-1,3,-8-triazaspiro[4,5]dec-8-yl]ethyl]-2-naphthalenecarboxamide], the EC50 on PLD2 [1] and on PLD2 [2] was around 10 nM each time.

Source of the values: publication PMC4312721 (Biochimica et biophysica acta, 2014).
